One experiment relates to WT MEF EVs. Description: Quantitative LC-MS/MS proteomics of EVs from ISRIB-treated WT MEF cultures. Type of experiment: cell-based, mouse. On the set-up: key to ISRIB and DYT Parallel Direction: YES = protein abundance effect similar to DYT/WT. Particulars: EV protein abundance.
For a further experiment, the system named is DYT-TOR1A MEF EVs. Description: Quantitative LC-MS/MS proteomics of EVs from drug-treated DYT-TOR1A MEF cultures (ritonavir, salubrinal). Particulars: EV protein abundance. Type of experiment: cell-based, mouse. On the set-up: key to RTV Corrective Direction: YES = protein abundance effect opposite to DYT/WT.

B1: Pnp (protein, UniProt P23492 1-289, looked up)
Purine nucleoside …: MENEFTYEDYETTAKWLLQHTEYRPQVAVICGSGLGGLTAHLKEAQIFDYNEIPNFPQSTVQGHAGRLVFGLLNGRCCVMMQGRFHMYEGYSLSKVTFPVRVFHLLGVETLVVTNAAGGLNPNFEVGDIMLIRDHINLPGFCGQNPLRGPNDERFGVRFPAMSDAYDRDMRQKAFTAWKQMGEQRKLQEGTYVMLAGPNFETVAESRLLKMLGADAVGMSTVPEVIVARHCGLRVFGFSLITNKVVMDYENLEKANHMEVLDAGKAAAQTLERFVSILMESIPLPDRGS
As to B1, the “WT + ISRIB/WT Cohen's d” value in the experiment on WT MEF EVs (ISRIB-treated WT vs WT) is given as −0.76. The “ISRIB and DYT Parallel Direction” value in the experiment with WT MEF EVs (WT + ISRIB vs WT, direction compared with DYT/WT) was “YES”. The “RTV Corrective Direction” value with DYT-TOR1A MEF EVs (DYT + RTV (ritonavir) vs DYT, direction compared with DYT/WT) was “YES”. For the same molecule, the “DYT + RTV/DYT Cohen's d” value in the experiment on DYT-TOR1A MEF EVs (ritonavir (RTV)-treated DYT vs DYT) is 1.71.

These data come from patent US20260266848A1, “COMPOSITIONS AND METHODS FOR DIAGNOSING AND TREATING DYSTONIA” (Duke University, priority 2023, published 2026).
